Patent US9884052B2, “Compounds and methods to treat organophosphorus poisoning” (dated 2018)

Target: "aged" hAChE (recombinant human acetylcholinesterase inhibited by Sarin analog 7-(isopropyl methylphosphonyl)-4-methylumbelliferone) (Homo sapiens, UniProt P22303)
Test: Resurrection assay: reactivation of "aged" hAChE by Compound 100 (Ellman ATCh hydrolysis after 2-PAM)
Settings: for vi (AChEaged): pH 7.3, 27° C., then 30 minute 100 μM 2-PAM, initial rate of ATCh hydrolysis; for % AChEreact: percent of "aged" hAChE reactivated by 2-PAM relative to AChEfree; for % AChERes.: percent of resurrected hAChE (Equation 3)
[1] = 1.77 mM Compound 100, incubation 1.00 hours
[2] = 1.77 mM Compound 100, incubation 4.00 hours
[3] = 1.77 mM Compound 100, incubation 12.00 hours
[4] = 1.77 mM Compound 100, incubation 24.00 hours
[5] = 1.77 mM Compound 100, incubation 48.00 hours

COc1cccc(C=NO)[n+]1C
vi (AChEaged) [1]: 11.05 (±1.3) mA/min | % AChEreact [1]: 2.45 (±0.7) % | % AChERes. [1]: 1.28 (±0.8) % | vi (AChEaged) [2]: 16.66 (±1.0) mA/min | % AChEreact [2]: 5.67 (±0.6) % | % AChERes. [2]: 4.50 (±0.6) % | vi (AChEaged) [3]: 20.56 (±0.1) mA/min | % AChEreact [3]: 6.46 (±1.1) % | % AChERes. [3]: 5.30 (±1.1) % | vi (AChEaged) [4]: 21.90 (±1.5) mA/min | % AChEreact [4]: 8.70 (±1.3) % | % AChERes. [4]: 8.7 (±1.3) % | vi (AChEaged) [5]: 21.75 (±1.3) mA/min | % AChEreact [5]: 7.03 (±0.8) % | % AChERes. [5]: 7.03 (±0.8) %
